The record followed here is US20040037843A1 (published 2004).

As a reminder, the IC50 is the midpoint of a concentration-inhibition curve. Low values mean higher potency, high ones lower potency.

Like-named read-outs stand apart in the source and are kept apart here.

Assay [1] addresses HLA-A*6802 (human).
Assay [2] concerns the target HLA-A*0201 (human).
Assay [3] addresses HLA-A*0201 (human). Kind of assay: competition with 125I-labelled standard peptide for purified HLA.
Assay [4] addresses HLA-A*0206 (human). Described as above.
In assay [5] the target is HLA-A*0201 (human). Kind of assay: competition with 125I probe peptide on purified HLA, gel filtration. A general note: In gel filtration, larger molecules generally elute earlier.
For assay [6], the target named is HLA-A*0206 (human). The description is as above.
Assay [7] addresses HLA-A*6802 (human). Described as above.
In assay [8] the target is HLA-A*0201 (human). Kind of assay: inhibition of 125I probe peptide binding to purified HLA.
For a further assay, the target named is HLA-A*0203 (human).
Assay [9] deals with HLA-A*0206 (human). Briefly: inhibition of 125I probe peptide binding to purified HLA, gel filtration.
Assay [10] addresses HLA-A*0201 (human). The description is as above.
In assay [11] the target is HLA-A*0201 (human). Briefly: competition with 125I-labelled standard peptide for purified HLA. The source holds these as a separate data set.
Assay [12] concerns the target HLA-A*0206 (human). Described as above. This is another data set of the same source.
Assay [13] has as its target HLA-A*0201 (human). Briefly: competition with 125I-labeled probe peptide for purified HLA, gel filtration.
Assay [14] addresses HLA-A*0206 (human). Described as above.
The target in a further assay is HLA-A*0202 (human). Described as above.

Regarding SLQCVSLHLV [peptide 1418.52 (HuK2.170.V10)], the IC50 was 205 nM with HLA-A*6802 [1] and 13 nM in the assay with HLA-A*0201 [2].

As to FLTLSVTWIGV [peptide 1419.27, PSA.3.V11], the 50% inhibitory concentration (IC50) was found to be 6.8 nM in the assay with HLA-A*0201 [3] and 65 nM in the assay with HLA-A*0206 [4].

Consider TVSGLQMAV [Peptide 60.0213 TVSGLQMAV (PAP.292.V9)], for which the IC50 with HLA-A*0201 [5] was 294 nM; with HLA-A*0206 [6], 195 nM; with HLA-A*6802 [7], 5.7 nM.

In the assay with HLA-A*0201 [8], FLLFFWLDRSV [Peptide 63.0138 FLLFFWLDRSV (PAP.20)] had a 50% inhibitory concentration (IC50) of 14 nM.

In the assay with HLA-A*0203, KVTEFMLCAGV [peptide 1418.71, HuK2.191.V11] gave an IC50 of 26 nM. This lies in the double-digit nanomolar range.

For FLTLSVTWIGV [Peptide 63.0186 (PSA.3.V11)], the figures for the IC50 with HLA-A*0206 [9] and in the assay with HLA-A*0201 [10] were 65 nM and 6.8 nM, respectively.

As to VLAGGFFLV [peptide 1389.20, PSM.27.V9], the IC50 with HLA-A*0201 [11] is 26 nM; with HLA-A*0206 [12], 57 nM.

In the assay with HLA-A*0201 [2], ITLSVGCTGAV [peptide 1418.59 (HuK2.8.T2)] showed an IC50 of 294 nM. That is a sub-micromolar value.

On to VLAGGFFLV [Peptide 1389.20], for which the IC50 with HLA-A*0201 [13] was determined as 26 nM; with HLA-A*0206 [14], 57 nM.

Turning to ATFDIESKV [Peptide 1418.30], in the assay with HLA-A*0202, the IC50 was determined as 27 nM.
